Patent publication US4529737A, “Analgesic and anti-inflammatory arylalkanoic acid phthalidyl esters and pharmaceutical compositions thereof” (priority 1979, dated 1985)
Read-outs that look alike come from different tables or passages of the source.

Columns and labels:
in vivo [1] = test: in vivo
in vivo [2] = test: in vivo; remark: listed apart in the source

With C=CCOc1ccc(CC(=O)O)cc1Cl [Compound V, 4-allyloxy-3-chlorophenylacetic acid, reference compound] as the compound, how does the LD50 (in vivo [1]) read?
The LD50 was 1090 mg/kg.

What about the LD50 (in vivo [2]) of the same compound?
The LD50 was 1030 mg/kg.
